Results: patent publication US20260049075A1, “CYTOTOXIC IMIDAZO[1,2-A]PYRIDINE COMPOUNDS AND THEIR USE IN THERAPY” (MyricX Pharma Limited, priority 2022, published 2026)

Tests used:
[1] = system: BT474 breast cancer cells; assay: Orthotopic breast cancer xenograft model (BT474), tumour volume; type: in vivo, mouse; conditions: NOD/SCID mice
Procedure: NOD/SCID mice were implanted with estrogen pellets (17β-estradiol, 60 day release, 0.36 mg) subcutaneously in the right flank one day before the tumour inoculation. On day −8 each mouse was then injected in the right mammary fat pad with 1×10^7 viable BT474 breast cancer cells resuspended in 0.2 mL of Phosphate Buffered Saline mixed with matrigel (1:1). Mice were assigned to treatment groups when tumour volumes averaged 149.78 mm^3 on study day 0. […] The study was terminated on Study Day 35. […] Each group was comprised of 10 mice. Tumour volumes in mice were measured three times per week and tumour volume was calculated using the formula 0.5 (L×W^2). The mean tumour volumes (+SEM) for each study group at each measurement are shown in FIGS. 7 and 8 plotted as Last Observation Carried Forward. Statistical analyses were carried out on tumour readings for Groups 1, 2, 3, 4 and 5 up to Study Day 23 (after this point >50% of the animals within one of the study groups were lost; Group 2) using two-way ANOVA, or a Mixed-Effects model was fitted when values were missing from groups (PRISM GraphPad Software Inc.). Statistical analysis of Group 6 was conducted until day 12 (at this point the study was terminated due to the significant loss of observed body weight). […]

[2] = Body weight in NCI-N87 xenograft study; type: in vivo, mouse; conditions: regained by next measurement
Procedure: During the study, body weights were measured three times weekly for all animals. Animals were given Diet Gel for the entire duration on the study. The mean body weights for each group during the dosing phase are presented in FIGS. 13A (2.5 mg/kg) and 13B (5 mg/kg).

NCI-N87 tumour cells = assay: Gastric cancer xenograft model (NCI-N87), tumour volume; type: in vivo, mouse; conditions: for TGI study day 28: BALB/c nude mice; for tumour volumes compared to vehicle alone: all concentrations (2.5 mg/kg or 5 mg/kg), p<0.0001
Procedure: In this study, 143 mice were inoculated subcutaneously in the right flank region with 1×10^7 viable NCI-N87 tumour cells resuspended in 0.1 mL of PBS mixed with Matrigel (1:1) for tumour development. 102 mice were assigned to 9 treatment groups on study day 0 when tumour volumes averaged 168.08 mm^3. […] The study was terminated on study Day 28.
Tumour volumes in mice were measured three times per week and tumour volume was calculated using the formula 0.5 (L×W2).
Tumour Growth Inhibition, ΔTGI %=((mean(C)−mean (C0))−(mean(T)−mean(T0)))/(mean(C)−mean(C0))*100% where T is the mean tumour volume of the treated group on the measurement day and TO is the mean tumour volume on Study Day 0. C is the mean tumour volume of the control Group 1 mice on the measurement day and C0 is the mean tumour volume on Study Day 0.

[3] = Body weight in BT474 xenograft study; type: in vivo, mouse; conditions: 2.5 or 5 mg/kg IV once per week
Procedure: During the study, body weights were measured three times weekly for all animals. Animals were given Diet Gel for the entire duration on the study.

human NMT1 (HsNMT1) = target: T1, human NMT1 (HsNMT1) (Homo sapiens, UniProt P30419); assay: HsNMT1 sensitive fluorescence-based assay (CoA detection with CPM); type: biochemical
T1 sequence (P30419 1-496): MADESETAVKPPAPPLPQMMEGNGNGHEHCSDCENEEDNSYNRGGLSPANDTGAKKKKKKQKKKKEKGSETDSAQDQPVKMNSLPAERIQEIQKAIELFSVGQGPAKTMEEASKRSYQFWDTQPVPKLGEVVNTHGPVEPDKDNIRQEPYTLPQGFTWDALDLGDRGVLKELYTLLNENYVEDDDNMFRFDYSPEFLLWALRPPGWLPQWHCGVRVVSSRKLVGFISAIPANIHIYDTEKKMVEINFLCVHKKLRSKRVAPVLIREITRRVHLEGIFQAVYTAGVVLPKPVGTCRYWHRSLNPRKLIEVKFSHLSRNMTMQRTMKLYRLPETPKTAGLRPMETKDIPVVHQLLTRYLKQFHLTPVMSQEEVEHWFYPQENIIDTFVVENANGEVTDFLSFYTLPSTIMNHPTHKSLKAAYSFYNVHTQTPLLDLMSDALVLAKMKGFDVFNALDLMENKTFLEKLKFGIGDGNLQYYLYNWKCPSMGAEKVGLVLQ
Procedure: The IC50 values for human NMT1 (HsNMT1) of certain Example compounds, and Comparator Compound 1, were measured using a sensitive fluorescence-based assay based on detection of CoA by 7-diethylamino-3-(4-maleimido-phenyl)-4-methylcoumarin, as described in Goncalves, V., et al., Analytical Biochemistry, 2012, 421, 342-344 and Goncalves, V., et al., J. Med. Chem, 2012, 55, 3578.

trastuzumab: antibody binding HER2; heavy chain SEQ ID NO: 2, light chain SEQ ID NO: 1
Tumor growth inhibition % on day 23 ([1]; 2.5 mg/kg IV once per week for four weeks): 3.6% | Tumor growth inhibition % on day 23 ([1]; 5 mg/kg IV once per week for four weeks): 46% | Significant body weight loss (>10%), animals affected ([2]; 2.5 mg/Kg): one animal | Significant body weight loss (>10%), animals affected ([2]; 5 mg/Kg): one animal | TGI study day 28 (NCI-N87 tumour cells; 2.5 mg/Kg IV QW x 2 weeks): 123.08% | TGI study day 28 (NCI-N87 tumour cells; 5 mg/Kg IV QW x 2 weeks): 167.70% | tumour volumes compared to vehicle alone (NCI-N87 tumour cells): significant decrease | body weights compared to vehicle control [3]: did not differ significantly from the vehicle control

trastuzumab deruxtecan
tumour volumes compared to vehicle alone (NCI-N87 tumour cells): significant decrease

CNCc1cnc2ccc(-c3ccc(F)cc3OCCc3c(C(C)(C)O)nn(C)c3C)cn12 [Example 18, 2-(4-(2-(5-fluoro-2-(3-((methylamino)methyl)imidazo[1,2-a]pyridin-6-yl)phenoxy)ethyl)-1,5-dimethyl-1H-pyrazol-3-yl)propan-2-ol]
IC50 (human NMT1 (HsNMT1)): 1.9 nM
